Test results taken from PubChem BioAssay (NCI).
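How tested: cells in 96-well plates exposed to compound for 48 hours at five concentrations. Definition used: TGI = concentration required for complete inhibition of growth.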

Columns and labels:
Assay in all cases: inhibition of tumour cell growth, NCI panel, 48 h
[1] = tested on: 786-0 renal
[2] = tested on: A498 renal
[3] = tested on: A549 NSCLC
[4] = tested on: ACHN renal
[5] = tested on: CCRF-CEM leukemia
[6] = tested on: COLO 205 colon
[7] = tested on: DU-145 prostate
[8] = tested on: EKVX NSCLC
[9] = tested on: HCC-2998 colon
[10] = tested on: HCT-116 colon
[11] = tested on: HL-60(TB) leukemia
[12] = tested on: HOP-62 NSCLC
[13] = tested on: HOP-92 NSCLC
[14] = tested on: HT29 colon
[15] = tested on: IGROV1 ovarian
[16] = tested on: K-562 leukemia
[17] = tested on: KM12 colon
[18] = tested on: LOX IMVI melanoma
[19] = tested on: M14 melanoma
[20] = tested on: MALME-3M melanoma
[21] = tested on: MCF7 breast
[22] = tested on: MDA-MB-231 breast
[23] = tested on: MDA-MB-435
[24] = tested on: MOLT-4 leukemia
[25] = tested on: NCI-H226 lung
[26] = tested on: NCI-H23 lung
[27] = tested on: NCI-H460 lung
[28] = tested on: NCI/ADR-RES ovarian
[29] = tested on: OVCAR-4 ovarian
[30] = tested on: OVCAR-5 ovarian
[31] = tested on: OVCAR-8 ovarian
[32] = tested on: RPMI-8226 leukemia
[33] = tested on: RXF 393 renal
[34] = tested on: SF-268 CNS
[35] = tested on: SF-295 CNS
[36] = tested on: SF-539 CNS
[37] = tested on: SK-MEL-28 melanoma
[38] = tested on: SK-MEL-5 melanoma
[39] = tested on: SK-OV-3 ovarian
[40] = tested on: SN12C renal
[41] = tested on: SNB-19 CNS
[42] = tested on: SNB-75 CNS
[43] = tested on: SR leukemia
[44] = tested on: SW-620 colon
[45] = tested on: T-47D breast
[46] = tested on: TK-10 renal
[47] = tested on: U251 CNS
[48] = tested on: UACC-257 melanoma
[49] = tested on: UACC-62 melanoma
[50] = tested on: UO-31 renal

Measured: TGI

O=C1NC(=NC2CCCCC2)C2(CCN(CCc3ccccc3)CC2)N1c1ccccc1
> 100 µM: all assays above
